Article PMC8105289 (European journal of medicinal chemistry, 2021)

Key:
[1] = Parallel artificial membrane permeability assay; conditions: log of the apparent permeability coefficient
[2] = not given; remark: listed apart in the source
[3] = logD7.4 by shake-flask method; conditions: n-octanol/aqueous buffer pH 7.4; shake-flask assay run by Analiza

Compound	PAMPA logPapp [1]	% Stability aq. buffer pH 7.4–7.6 [%]	PAMPA % retention (membrane retention) [2] [E–2%]	PAMPA Pe (effective permeability) [2] [E–6 cm/s]	PAMPA logPapp [2]	logD7.4 [3]
CN(C)S(=O)(=O)Nc1cc(-c2ccccc2)on1 [Compound 29, N-(5-Phenylisoxazol-3-yl)-N,N-dimethylaminesulfonamide]	−5.54	–	–	–	–	–
cis-N-(1-Oxido-3-phenethylthietan-3-yl)benzenesulfonamide [Compound 22]	–	90.3	5.07	2.91	−5.54	0.76^†

Read-outs that look alike come from different tables or passages of the source. Marks after values point to notes of the source that are not given here.
